Data taken from patent publication EP0308983A2, “NMR imaging with Mn(II) coordination compositions” (priority 1987, dated 1989).

Legend:
Rats [1] = settings: IV, standard conditions, 10 animals per dosage group
Source text: The doses were 0.3, 0.5, and 0.8 mmole/kg. 10 Animals were used in each dosage group.

Rats [2] = settings: doses of 0.1 mmol/kg, Mendonca-dias et al.; cited from earlier work
[3] = test system: test population of animals

Substance: Manganese chloride [MnCl₂]
- LD₅₀ (Rats [1]): less than 0.2 mmole/kg
- lethality (Rats [2]): almost always lethal
- LD₅₀ ([3]; Table A, species and unit not given): 0.1
- Safety Factor ([3]; ratio of LD₅₀ and dose for T₁ = 200): 10
